From patent publication US20260355312A1, “COMBINED THERAPY DRUG COMPRISING ANTI-HER2 BISPECIFIC ANTIBODY AND USE THEREOF” (JIANGSU ALPHAMAB BIOPHARMACEUTICALS CO., LTD., priority 2023, published 2026)

How the values were obtained:
[1] = tested on: domain IV of human HER2 protein; test: Targeting of HER2 domain IV by Fab2 (heavy chain II); assay type: binding
[2] = tested on: HER2-positive tumor cells; test: In vitro anti-tumor cell proliferation experiments; assay type: cell-based
[3] = tested on: HER2-positive tumor cells; test: Antibody-dependent cell-mediated cytotoxicity; assay type: cell-based

Question: How did the “targeting of domain IV of human HER2 protein; inhibition of HER2-related signaling” value [1] turn out when “KN026: anti-HER2 bispecific antibody; common light chains SEQ ID NO: 5, heavy chain I SEQ ID NO: 10, heavy chain II SEQ ID NO: 15” was run?
Answer: The value was “targets domain IV of human HER2 protein to inhibit HER2-related signaling pathways”.

Question: And the “inhibition of tumor cell proliferation” value [2]?
Answer: Its value is “inhibits tumor cell proliferation in a dose-dependent manner”.

Question: And the antibody-dependent cell-mediated cytotoxicity [3]?
Answer: The antibody-dependent cell-mediated cytotoxicity was “significant antibody-dependent cell-mediated cytotoxicity”.
